Measurements taken from publication PMC9256669, “Monomethyl auristatin antibody and peptide drug conjugates for trimodal cancer chemo-radio-immunotherapy” (Nature Communications, 2022).

Tests used:
B16 tumors = test: Subcutaneous tumor therapy, ADC monotherapy, mouse survival; type: in vivo, C57BL/6 mice
B16 cells = test: Cell surface binding of Cy5-labeled ADCs by flow cytometry; type: cell-based, murine
Description: Vehicle 2.5 nmoles 5 nmoles Vehicle CDX3379- […]
tumor xenografts (tumor locations circled yellow). Mice i.v. injected with 2.5 nmoles Cy5 labeled CDX3379-MMAE. White light imaged mouse on far left. Cy5 captured images at […]
days post injection. White light images (top) and Cy5 images (bottom) captured. Images […]
orthotopic tongue tumors.
48 hr. Imaged tongue delineated by dashed gray line. Images representative of 3 […]
by flow cytometry. Mean fluorescent intensity measured and subtracted from baseline fluorescence of saline incubated cells for each cell line. Data representative of 3 […]
pseudocolor scale bar shown far right. Gut auto-fluorescence indicated by blue arrows.
Images representative of 2 mice/group. Source data are provided in Source Data file.

## Cetux-MMAE: cetuximab (anti-human EGFR antibody)-MMAE conjugate, negative control ADC for murine tumors
B16 tumors
  anti-tumor activity as measured by mouse survival: did not significantly increase survival
B16 cells
  cell surface binding to B16 cells: did not appreciably attach
